The assay addresses human SCD5 (Homo sapiens, UniProt Q86SK9). The assay is described as follows: Growth inhibition of yeast strain expressing human SCD5 as sole desaturase (OLE1 deleted), OD600 readout. In kind it is cell-based. The note with it: read-out: SCD5 IC50, growth (OD600) after 40 h at 30° C.

The chains behind the UniProt entries cited, without tags or fusion partners.
UniProt Q86SK9, whole entry: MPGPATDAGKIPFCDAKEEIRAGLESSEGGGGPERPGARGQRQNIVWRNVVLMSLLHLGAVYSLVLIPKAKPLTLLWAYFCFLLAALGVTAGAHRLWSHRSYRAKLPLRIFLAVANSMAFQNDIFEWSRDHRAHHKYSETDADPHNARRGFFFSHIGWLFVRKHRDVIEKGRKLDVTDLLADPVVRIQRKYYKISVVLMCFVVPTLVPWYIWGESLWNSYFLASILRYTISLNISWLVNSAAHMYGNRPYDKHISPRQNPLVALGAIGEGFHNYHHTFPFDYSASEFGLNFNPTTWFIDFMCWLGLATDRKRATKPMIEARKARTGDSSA

By IC50 is commonly meant the concentration at which inhibition is half-maximal. Consider `CN1N=C(C(=O)Nc2ccc(Cc3ccc(Cl)c(F)c3)cn2)CCC1=O` [Compound 11, N-(5-(4-chloro-3-fluorobenzyl)pyridin-2-yl)-1-methyl-6-oxo-1,4,5,6-tetrahydropyridazine-3-carboxamide], for which the 50% inhibitory concentration (IC50) is 0.02 µM.

For the origin of these results see US20230078764A1 (Yumanity Therapeutics, Inc., priority 2019, published 2023).
